The values that follow are results of earlier work, collected in publication PMC7931646 (The Journal of Experimental Medicine, 2021).

For this data set, the system named is Aβ plaques. The settings on record: prodromal or mild AD patients, phase 1b vs placebo; ref Sevigny et al., 2016; cited from earlier work.

With “aducanumab: Biogen's anti-Aβ antibody, passive immunization”, the “Aβ plaques by amyloid PET imaging” value is “dose-dependent reduction”.
